Columns and labels:
prothrombinase = prothrombinase (Homo sapiens (Human), UniProt P00742); assay: Prothrombin assay (prothrombinase, thrombin production); type: biochemical; conditions: human factor Xa, human blood platelets, substrate S-2238
Experimental: The inhibitory ability of the compounds to be tested on Xa factor or other enzymes, such as thrombin or trypsin, in human or rats were determined by IC50 values, wherein the IC50 value was associated with the inhibition constant Ki. The purified enzyme was used in the chromogenic determination. The initial rate of hydrolysis of the chromogenic substrate was determined by the variation of absorbance at 405 nm in the linear part on time (usually 2 to 10 minutes after the addition of the substrate) at 37° C. by using FlexStation III (USA Molecular Instruments). By plotting a curve regarding the relative velocity of the hydrolysis (compared to the control group which was free of inhibition) on the logarithm of the concentration of the compounds and linear regression calculation, the concentration of the inhibitor leading to a 50% reduction of the rate of the hydrolysis of the substrate was determined. The enzyme inhibition constant (Ki) was calculated according to Cheng-Prusoff equation: Ki=IC50/(1+[S]/Km), where [S] was the substrate concentration and Km was the meter-Mann's constant determined by the double reciprocal mapping method. The IC50 values of the compounds were obtained by GraphPad Prism software. The curve is fitted by using the “shaped dose effect (variable slope)”.
The activity of the compound to be tested against prothrombinase was determined by the production of thrombin. […]

The chains behind the UniProt entries cited, without tags or fusion partners. Residues count along the entry.
UniProt P00742, 41-179: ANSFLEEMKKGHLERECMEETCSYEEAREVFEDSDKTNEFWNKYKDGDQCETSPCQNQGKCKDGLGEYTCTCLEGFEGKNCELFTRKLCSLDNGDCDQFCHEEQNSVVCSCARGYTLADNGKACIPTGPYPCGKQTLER
UniProt P00742, 235-488: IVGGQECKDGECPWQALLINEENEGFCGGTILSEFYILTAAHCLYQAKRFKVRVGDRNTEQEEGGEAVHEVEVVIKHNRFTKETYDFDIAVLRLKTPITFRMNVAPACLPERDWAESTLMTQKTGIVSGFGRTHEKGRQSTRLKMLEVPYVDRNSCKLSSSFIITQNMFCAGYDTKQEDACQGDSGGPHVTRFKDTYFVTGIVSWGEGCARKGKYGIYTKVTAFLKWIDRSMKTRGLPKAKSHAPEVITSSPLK

[1] = target: human coagulation factor Xa (Homo sapiens (Human), UniProt P00742); assay: Human coagulation factor Xa chromogenic assay; type: biochemical; conditions: purified enzyme, substrate S-2222, 37° C.; Ki from IC50 by Cheng-Prusoff; read-out: hfXa Ki
Experimental: The inhibitory ability of the compounds to be tested on Xa factor or other enzymes, such as thrombin or trypsin, in human or rats were determined by IC50 values, wherein the IC50 value was associated with the inhibition constant Ki. The purified enzyme was used in the chromogenic determination. The initial rate of hydrolysis of the chromogenic substrate was determined by the variation of absorbance at 405 nm in the linear part on time (usually 2 to 10 minutes after the addition of the substrate) at 37° C. by using FlexStation III (USA Molecular Instruments). By plotting a curve regarding the relative velocity of the hydrolysis (compared to the control group which was free of inhibition) on the logarithm of the concentration of the compounds and linear regression calculation, the concentration of the inhibitor leading to a 50% reduction of the rate of the hydrolysis of the substrate was determined. The enzyme inhibition constant (Ki) was calculated according to Cheng-Prusoff equation: Ki=IC50/(1+[S]/Km), where [S] was the substrate concentration and Km was the meter-Mann's constant determined by the double reciprocal mapping method. The IC50 values of the compounds were obtained by GraphPad Prism software. […]
The inhibitory activity on coagulation factor Xa activity in human or rats was measured by using Tris-HCl buffer (50 mM, pH 8.3, 150 mM NaCl). […]

- Ki (prothrombinase): 4.22 nM
- Ki [1]: 1.93 nM
Structure (SMILES): O=C(NC[C@@H]1OC(=O)N2c3ccc(N4CCCCC4=O)cc3OC[C@@H]12)c1ccc(Cl)s1 [Compound 2]
